The values below come from patent US20080262053A1 (priority 2005, published 2008).

The test system of the series is patients suffering from moderate to severe RLS. The note with it: single doses as tablets containing 0.1 to 1.5 mg active substance, once a day. The source says:
The expression moderate to severe RLS is used when patients reach a points score of >15 on the international RLS scale. The scale runs from 0 (no RLS symptoms) to 40 (severest form of RLS). Thus, in moderate to severe RLS, the symptoms usually occur more than twice a week.

For the molecule `CCCNC1CCc2nc(N)sc2C1.Cl.Cl` (stereo not shown) [pramipexole, 2-amino-6-n-propylamino-4,5,6,7-tetrahydrobenzo-thiazole dihydrochloride], the tolerability result is “well tolerated”.
